Source: patent US20250195530A1, “POLQ INHIBITORS” (ASTRAZENECA AB, priority 2022, published 2025)

Amino acid sequences for entries named in this document (tags omitted). Residues count along the entry.
UniProt O75417, 1780-2590: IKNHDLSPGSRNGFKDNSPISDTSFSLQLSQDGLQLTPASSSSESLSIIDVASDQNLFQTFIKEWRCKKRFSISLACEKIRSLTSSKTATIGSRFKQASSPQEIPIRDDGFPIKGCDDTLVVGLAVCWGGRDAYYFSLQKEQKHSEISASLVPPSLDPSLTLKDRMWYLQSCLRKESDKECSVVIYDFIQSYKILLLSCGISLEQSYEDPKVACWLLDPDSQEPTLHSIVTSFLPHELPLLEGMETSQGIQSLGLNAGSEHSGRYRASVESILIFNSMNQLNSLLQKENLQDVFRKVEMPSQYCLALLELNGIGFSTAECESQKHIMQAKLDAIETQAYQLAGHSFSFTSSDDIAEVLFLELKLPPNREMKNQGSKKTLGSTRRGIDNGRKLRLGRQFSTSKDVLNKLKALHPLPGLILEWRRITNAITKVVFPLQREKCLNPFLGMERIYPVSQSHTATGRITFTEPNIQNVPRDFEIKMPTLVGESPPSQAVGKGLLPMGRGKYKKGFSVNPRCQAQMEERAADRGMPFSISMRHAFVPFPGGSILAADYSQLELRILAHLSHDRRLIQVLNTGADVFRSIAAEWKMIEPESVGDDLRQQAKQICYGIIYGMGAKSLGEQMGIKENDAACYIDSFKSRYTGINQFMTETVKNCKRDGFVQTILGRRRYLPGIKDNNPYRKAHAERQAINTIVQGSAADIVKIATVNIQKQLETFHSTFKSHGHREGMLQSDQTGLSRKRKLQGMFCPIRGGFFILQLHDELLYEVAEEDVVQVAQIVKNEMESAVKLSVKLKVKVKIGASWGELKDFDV

Target: isolated polymerase domain (I1780-V2590) of DNA polymerase theta (Polθ) (Homo sapiens (Human), UniProt O75417)
Assay: biochemical

| SMILES | IC50 |
| --- | --- |
| CC1(Oc2ncnc3c2nc(-c2ccc(OCCCCCCC(=O)O)cc2Cl)n3Cc2cccc(Cl)c2)CC1 [Example T561, 7-(3-chloro-4-(9-(3-chlorobenzyl)-6-(1-methylcyclopropoxy)-9H-purin-8-yl)phenoxy)heptanoic acid] | 6.31 nM |
| Cc1ccnc(Cn2c(-c3ccc(C(=O)N4CCC[C@@H]4CO)cc3Cl)nc3c(OC4(C)CC4)ncnc32)c1 [Example T459, (R)-(3-chloro-4-(6-(1-methylcyclopropoxy)-9-((4-methylpyridin-2-yl)methyl)-9H-purin-8-yl)phenyl)(2-(hydroxymethyl)pyrrolidin-1-yl)methanone] | 25.1 nM |
| Cc1ccnc(Cn2c(-c3ccc(OCC(=O)NCCCF)cc3Cl)nc3c(OC4(C)CC4)ncnc32)c1 [Example T328, 2-(3-chloro-4-(6-(1-methylcyclopropoxy)-9-((4-methylpyridin-2-yl)methyl)-9H-purin-8-yl)phenoxy)-N-(3-fluoropropyl)acetamide] | 10 nM |
| CNCCCOc1ccc(-c2nc3c(OC4(C)CC4)ncnc3n2Cc2cc(Cl)ccn2)c(Cl)c1 [Example T134, 3-(3-chloro-4-(9-((4-chloropyridin-2-yl)methyl)-6-(1-methylcyclopropoxy)-9H-purin-8-yl)phenoxy)-N-methylpropan-1-amine] | 7.94 nM |
| Cc1ccnc(Cn2c(-c3ccc(C(=O)N4CC(O)C4)cc3Cl)nc3c(OC4(C)CC4)ncnc32)c1 [Example T180, (3-chloro-4-(6-(1-methylcyclopropoxy)-9-((4-methylpyridin-2-yl)methyl)-9H-purin-8-yl)phenyl)(3-hydroxyazetidin-1-yl)methanone] | 7.94 nM |
| CC1(Oc2ncnc3c2nc(-c2ccc(OCCCN4CC[C@@H](O)C4)cc2Cl)n3Cc2cc(Cl)ccn2)CC1 [Example T502, (R)-1-(3-(3-chloro-4-(9-((4-chloropyridin-2-yl)methyl)-6-(1-methylcyclopropoxy)-9H-purin-8-yl)phenoxy)propyl)pyrrolidin-3-ol] | 3.16 nM |
| CNCCCOc1ccc(-c2nc3c(OC4(C)CC4)ncnc3n2Cc2cc(C)ccn2)c(Cl)c1 [Example T238, 3-(3-chloro-4-(6-(1-methylcyclopropoxy)-9-((4-methylpyridin-2-yl)methyl)-9H-purin-8-yl)phenoxy)-N-methylpropan-1-amine] | 2.51 nM |
| Cc1noc(C)c1Cn1c(-c2ccc(CC(N)=O)cc2Cl)nc2c(OC3(C)CC3)ncnc21 [Example T27, 2-(3-chloro-4-(9-((3,5-dimethylisoxazol-4-yl)methyl)-6-(1-methylcyclopropoxy)-9H-purin-8-yl)phenyl)acetamide] | 6310 nM |
| Cc1ccnc(Cn2c(-c3ccc(CN4CCC(O)CC4)cc3Cl)nc3c(OC4(C)CC4)ncnc32)c1 [Example T508, 1-(3-chloro-4-(6-(1-methylcyclopropoxy)-9-((4-methylpyridin-2-yl)methyl)-9H-purin-8-yl)benzyl)piperidin-4-ol] | 3.98 nM |
| Cc1ccnc(Cn2c(-c3ccc(OCC(C)(C)CO)cc3Cl)nc3c(OC4(C)CC4)ncnc32)c1 [Example T383, 3-(3-chloro-4-(6-(1-methylcyclopropoxy)-9-((4-methylpyridin-2-yl)methyl)-9H-purin-8-yl)phenoxy)-2,2-dimethylpropan-1-ol] | 6.31 nM |
| Cc1ccnc(Cn2c(-c3ccc(OCC(=O)N4CCC[C@H](F)C4)cc3Cl)nc3c(OC4(C)CC4)ncnc32)c1 [Example T552, (S)-2-(3-chloro-4-(6-(1-methylcyclopropoxy)-9-((4-methylpyridin-2-yl)methyl)-9H-purin-8-yl)phenoxy)-1-(3-fluoropiperidin-1-yl)ethan-1-one] | 7.94 nM |
| CC1(Oc2ncnc3c2nc(-c2ccc(OC4CNC4)cc2Cl)n3Cc2cc(Cl)ccn2)CC1 [Example T50, 8-(4-(azetidin-3-yloxy)-2-chlorophenyl)-9-((4-chloropyridin-2-yl)methyl)-6-(1-methylcyclopropoxy)-9H-purine] | 2.51 nM |
| Cc1ccnc(Cn2c(-c3ccc(OC4CCc5nccn5C4)cc3Cl)nc3c(OC4(C)CC4)ncnc32)c1 (single isomer, unassigned) [Example T536, 8-(2-chloro-4-((5,6,7,8-tetrahydroimidazo[1,2-a]pyridin-6-yl)oxy)phenyl)-6-(1-methylcyclopropoxy)-9-((4-methylpyridin-2-yl)methyl)-9H-purine] | 5.01 nM |
| Cc1cc(Cl)nc(Cn2c(-c3ccc(OCCN4CCNCC4)cc3Cl)nc3c(OC4(C)CC4)ncnc32)c1 [Example T524, 8-(2-chloro-4-(2-(piperazin-1-yl)ethoxy)phenyl)-9-((6-chloro-4-methylpyridin-2-yl)methyl)-6-(1-methylcyclopropoxy)-9H-purine] | 3.98 nM |
| COc1ccc(F)cc1Cn1c(-c2ccc(OCC[C@@H](C)C(=O)O)cc2Cl)nc2c(OC3(C)CC3)ncnc21 [Example U67, (R)-4-(3-chloro-4-(9-(5-fluoro-2-methoxybenzyl)-6-(1-methylcyclopropoxy)-9H-purin-8-yl)phenoxy)-2-methylbutanoic acid] | 2 nM |
| Cc1ccnc(Cn2c(-c3ccc(OCCN4CCCC4=O)cc3Cl)nc3c(OC4(C)CC4)ncnc32)c1 [Example T469, 1-(2-(3-chloro-4-(6-(1-methylcyclopropoxy)-9-((4-methylpyridin-2-yl)methyl)-9H-purin-8-yl)phenoxy)ethyl)pyrrolidin-2-one] | 5.01 nM |

| SMILES | IC50 |
| --- | --- |
| CC1(Oc2ncnc3c2nc(-c2ccc(OCCO)cc2Cl)n3Cc2cc(C(F)(F)F)ccn2)CC1 [Example T44, 2-(3-chloro-4-(6-(1-methylcyclopropoxy)-9-((4-(trifluoromethyl)pyridin-2-yl)methyl)-9H-purin-8-yl)phenoxy)ethan-1-ol] | 5.01 nM |
| CNC(=O)CNc1ccc(-c2nc3c(OC4(C)CC4)ncnc3n2Cc2cc(C)ccn2)c(Cl)c1 [Example T131, 2-((3-chloro-4-(6-(1-methylcyclopropoxy)-9-((4-methylpyridin-2-yl)methyl)-9H-purin-8-yl)phenyl)amino)-N-methylacetamide] | 6.31 nM |
| C[C@H](CCOc1cccc(-c2nc3c(OC4(C)CC4)ncnc3n2Cc2cc(Cl)ccc2C#N)c1Cl)C(=O)O [Example U95, (R)-4-(2-chloro-3-(9-(5-chloro-2-cyanobenzyl)-6-(1-methylcyclopropoxy)-9H-purin-8-yl)phenoxy)-2-methylbutanoic acid] | 3.98 nM |
| CC(CCOc1cccc(-c2nc3c(OC4(C)CC4)ncnc3n2Cc2cccc(Cl)c2)c1Cl)C(=O)O (racemic) [Example T293, 4-(2-chloro-3-(9-(3-chlorobenzyl)-6-(1-methylcyclopropoxy)-9H-purin-8-yl)phenoxy)-2-methylbutanoic acid] | 5.01 nM |
| CC1(Oc2ncnc3c2nc(-c2ccc(OCCCN4CC[C@@H](O)C4)cc2Cl)n3Cc2cc(C(F)F)ccn2)CC1 [Example T568, (R)-1-(3-(3-chloro-4-(9-((4-(difluoromethyl)pyridin-2-yl)methyl)-6-(1-methylcyclopropoxy)-9H-purin-8-yl)phenoxy)propyl)pyrrolidin-3-ol] | 6.31 nM |
| CC(CCOc1ccc(-c2nc3c(OC4(C)CC4)ncnc3n2Cc2cc(C(F)(F)F)cc(C(F)(F)F)c2)c(Cl)c1)C(=O)O (racemic) [Example T533, 4-(4-(9-(3,5-bis(trifluoromethyl)benzyl)-6-(1-methylcyclopropoxy)-9H-purin-8-yl)-3-chlorophenoxy)-2-methylbutanoic acid] | 7.94 nM |
| Cc1ccnc(Cn2c(-c3ccc(C(=O)N4CCCC4)cc3Cl)nc3c(OC4(C)CC4)ncnc32)c1 [Example T309, (3-chloro-4-(6-(1-methylcyclopropoxy)-9-((4-methylpyridin-2-yl)methyl)-9H-purin-8-yl)phenyl)(pyrrolidin-1-yl)methanone] | 10 nM |
| CC1(Oc2ncnc3c2nc(-c2ccc(CCCCC(=O)O)cc2Cl)n3Cc2cccc(Cl)c2)CC1 [Example T289, 5-(3-chloro-4-(9-(3-chlorobenzyl)-6-(1-methylcyclopropoxy)-9H-purin-8-yl)phenyl)pentanoic acid] | 5.01 nM |
| Cc1ccnc(Cn2c(-c3ccc(N4CC(O)C4)cc3Cl)nc3c(OC4(C)CC4)ncnc32)c1 [Example T115, 1-(3-chloro-4-(6-(1-methylcyclopropoxy)-9-((4-methylpyridin-2-yl)methyl)-9H-purin-8-yl)phenyl)azetidin-3-ol] | 6.31 nM |
| CC(CCOc1ccc(-c2nc3c(OC4(C)CC4)ncnc3n2Cc2cc(Cl)ccc2C#N)c(Cl)c1)C(=O)O (racemic) [Example U9, 4-(3-chloro-4-(9-(5-chloro-2-cyanobenzyl)-6-(1-methylcyclopropoxy)-9H-purin-8-yl)phenoxy)-2-methylbutanoic acid] | 5.01 nM |
| Cc1ccnc(Cn2c(-c3ccc(CC(=O)NCCCO)cc3Cl)nc3c(OC4(C)CC4)ncnc32)c1 [Example T370, 2-(3-chloro-4-(6-(1-methylcyclopropoxy)-9-((4-methylpyridin-2-yl)methyl)-9H-purin-8-yl)phenyl)-N-(3-hydroxypropyl)acetamide] | 7.94 nM |
| CC1(Oc2ncnc3c2nc(-c2ccc(OCCCOCC(=O)O)cc2Cl)n3Cc2cccc(Cl)c2)CC1 [Example T302, 2-(3-(3-chloro-4-(9-(3-chlorobenzyl)-6-(1-methylcyclopropoxy)-9H-purin-8-yl)phenoxy)propoxy)acetic acid] | 5.01 nM |
| Cc1ccnc(Cn2c(-c3ccc(C(=O)N4CC[C@@H](CO)C4)cc3Cl)nc3c(OC4(C)CC4)ncnc32)c1 [Example T464, (R)-(3-chloro-4-(6-(1-methylcyclopropoxy)-9-((4-methylpyridin-2-yl)methyl)-9H-purin-8-yl)phenyl)(3-(hydroxymethyl)pyrrolidin-1-yl)methanone] | 15.8 nM |
| Cc1ccnc(Cn2c(-c3ccc(CC(=O)N4CC(C)(O)C4)cc3Cl)nc3c(OC4(C)CC4)ncnc32)c1 [Example T470, 2-(3-chloro-4-(6-(1-methylcyclopropoxy)-9-((4-methylpyridin-2-yl)methyl)-9H-purin-8-yl)phenyl)-1-(3-hydroxy-3-methylazetidin-1-yl)ethan-1-one] | 6.31 nM |
| C[C@@H]1CNCCN1CCOc1ccc(-c2nc3c(OC4(C)CC4)ncnc3n2Cc2cc(Cl)ccn2)c(Cl)c1 [Example T522, (R)-8-(2-chloro-4-(2-(2-methylpiperazin-1-yl)ethoxy)phenyl)-9-((4-chloropyridin-2-yl)methyl)-6-(1-methylcyclopropoxy)-9H-purine] | 6.31 nM |
